The values that follow come from ChEMBL document CHEMBL4837204, “Synthesis, biological, and photophysical studies of molecular rotor-based fluorescent inhibitors of the trypanosome alternative oxidase” (Eur J Med Chem, 2021).

Structures are written as SMILES.

In the series the test system is HEK-293T. Nature of the series: Cytotoxicity against HEK293T cells assessed as reduction in cell viability […] by resazurin dye based fluorescence assay. Particulars: human, 24 h. In general terms: Resazurin is reduced to fluorescent resorufin, in cell work by metabolically active cells.

For the compound `O=[As]c1ccccc1` (stereo unspecified), the CC50 is 460 nM.

One may read the CC50 as the concentration that lowers cell viability or growth by half.
